Patent publication EP4840895A1, “PEGYLATED BORON-CONTAINING TRYPTOPHAN DERIVATIVE AND PREPARATION METHOD THEREFOR, PHARMACEUTICAL COMPOSITION CONTAINING PEGYLATED BORON-CONTAINING TRYPTOPHAN DERIVATIVE, AND USE THEREOF” (dated 2026)

Experiments:
[1] = aqueous solubility comparison (Table 1)
[2] = size-distribution measurement (dynamic light scattering, laser scattering particle size analyzer); conditions: 1 mg dissolved in CH3CH2OH, ultrasonic vibration 5 min
Description: The samples TB-6-BTMe, TB-6-BT-PEG200, TB-6-BT-PEG600, PEG200 and PEG600 were each taken 1 mg for dissolving in CH3CH2OH in a vial (3 mL) followed by ultrasonic vibration for 5 min. The particle size measurement was carried out using Zetasizer Ultra-Red mediating through a laser irradiation to extract the information of the diffraction patterns. The data was manipulated by numerical analysis through the software of manufacturer. The size distribution was graphed using GraphPad Prism 5 software.

Compound | solubility ([1]; 40 µL EtOH +100 µL H2O (30% EtOH)) | solubility ([1]; EtOH + H2O (15% EtOH)) | average diameter (ID) [2]
boronophenyl alanine | insoluble | insoluble | –
COC(=O)C(Cc1cn(C(=O)OC(C)(C)C)c2cc(B3OC(C)(C)C(C)(C)O3)ccc12)N(C(=O)OC(C)(C)C)C(=O)OC(C)(C)C (stereo not shown) | – | – | 78.7 nm
CC(C)(C)OC(=O)N(C(=O)OC(C)(C)C)C(Cc1cn(C(=O)OC(C)(C)C)c2cc(B3OC(C)(C)C(C)(C)O3)ccc12)C(=O)O (stereo not shown) | – | insoluble | –
